In the test the test system is TT tumors. Description: Naked anti-CEA MAb alone on growth of TT tumors in nude mice. The settings on record: for T-test analysis of the area under the growth curves versus untreated: then weekly.
Where [1] appears, read: 0.5 mg/mouse i.v. one day after TT cells, then three weekly doses.

Data on three molecules can be found in patent US8778342B2, “Antibody therapy” (Immunomedics, Inc., priority 2002, dated 2014).

For “hLL2: negative control humanized MAb, anti-CD22 [reference compound]”, the “effect on tumor growth (specificity of treatment)” value under setting [1] was “did not slow tumor growth”.

Turning to “hMN-14: humanized (CDR-grafted) Class III anti-CEA monoclonal antibody MN-14, naked”, the “T-test analysis of the area under the growth curves versus untreated” value by setting is: (0.25 mg starting 1 day after TT cells) “significant growth inhibition”; (0.25 mg starting 3 days after TT cells) “significant growth inhibition”; (0.25 mg starting 7 days after TT cells, p=0.057 at 5 weeks) “did not reach the 95% confidence limit”. Moreover, the “mean tumor volume as % of the size of tumors in the untreated animals” value (2 lowest treatment groups (0.125 mg and 0.25 mg weekly), between day-21 and day-49) is 27-40%. Further, the “mean tumor sizes and area under the growth curves versus untreated” value (all weekly doses 0.125 mg to 2.0 mg/mouse from day 1) is on record as “Significant differences”. Moreover, the “mean tumor volume as % of the untreated control animals” value (day-37, 0.5 mg/mouse i.v. one day after TT cells, then three weekly doses) was determined as 42.7%.

B1: murine MN-14: murine Class III anti-CEA MAb, reacting with CEA, unreactive with NCA and meconium antigen (antibody, listed as Mus sp., V domains shown)
VH: EVKLLESGGGLVQSGGSLKLSCAASGFDFTTYWMSWVRQAPGKGLEWIGEIHPDSSTINYAPSLKDKFIVSRDNAKNTLYLQMSKVRSEDTALYYCASLYFGFPWFAYWGQGTPVTVSA
VL: EIQLTQSHKMMSTSVGDRVSITCKASQDVGTSVAWYQQRPGQSPKLLIYWTSTRHTGVPDRFTGSVSGTDFTLTITNVQSEDLADYFCQQYSLYRSFGGGTKLEIK
modifications: constant regions
Turning to B1, the “effect on tumor growth (specificity of treatment)” value under setting [1] is on record as “results similar to the hMN-14”.
